Test results: patent publication US20240082212A1, “USE OF MDMA FOR TREATMENT OF STRESS-RELATED DISORDERS” (priority 2022, published 2024)

The chains behind the UniProt entries cited, without tags or fusion partners. Residues count along the entry.
UniProt P28335, 33-458: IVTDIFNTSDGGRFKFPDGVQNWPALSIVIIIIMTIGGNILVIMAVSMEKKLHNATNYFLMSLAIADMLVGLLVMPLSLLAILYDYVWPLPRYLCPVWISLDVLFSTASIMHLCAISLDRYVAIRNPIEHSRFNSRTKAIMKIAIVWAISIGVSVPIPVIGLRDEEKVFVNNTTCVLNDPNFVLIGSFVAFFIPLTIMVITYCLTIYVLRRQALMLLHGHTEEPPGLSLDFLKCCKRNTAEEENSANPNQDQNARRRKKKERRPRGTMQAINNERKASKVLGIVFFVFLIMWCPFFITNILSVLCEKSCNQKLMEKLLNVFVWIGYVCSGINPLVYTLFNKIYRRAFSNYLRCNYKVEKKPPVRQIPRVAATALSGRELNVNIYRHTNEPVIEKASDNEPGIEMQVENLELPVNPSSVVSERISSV

Target: Serotonin 5-HT2C (Homo sapiens, UniProt P28335)
Assay: biochemical
Format: binding

CNC(C)Cc1ccc2c(c1)OCO2 (single isomer, unassigned) [R-MDMA, R(−)-3,4-methylenedioxymethamphetamine]
IC50: 2600 nM | Ki: 1360 nM
